According to PubChem BioAssay (NCATS):
Only a part is listed here, and it is no random draw. Some tests of the compounds listed are not included; inactive here does not mean inactive elsewhere. Inconclusive results are not listed. Activity calls are given as the source filed them. Calls come from the whole dose curve; as a rule, active = well fitted curve in the direction sought with a large enough effect; inconclusive = small, poorly fitted or top-dose-only effect, or another doubt; inactive = no such curve, though single readings can be large; an effect the other way counts as inactive or inconclusive.

Chains of the proteins cited; added tags and fusions are not shown.
UniProt O15648, whole entry: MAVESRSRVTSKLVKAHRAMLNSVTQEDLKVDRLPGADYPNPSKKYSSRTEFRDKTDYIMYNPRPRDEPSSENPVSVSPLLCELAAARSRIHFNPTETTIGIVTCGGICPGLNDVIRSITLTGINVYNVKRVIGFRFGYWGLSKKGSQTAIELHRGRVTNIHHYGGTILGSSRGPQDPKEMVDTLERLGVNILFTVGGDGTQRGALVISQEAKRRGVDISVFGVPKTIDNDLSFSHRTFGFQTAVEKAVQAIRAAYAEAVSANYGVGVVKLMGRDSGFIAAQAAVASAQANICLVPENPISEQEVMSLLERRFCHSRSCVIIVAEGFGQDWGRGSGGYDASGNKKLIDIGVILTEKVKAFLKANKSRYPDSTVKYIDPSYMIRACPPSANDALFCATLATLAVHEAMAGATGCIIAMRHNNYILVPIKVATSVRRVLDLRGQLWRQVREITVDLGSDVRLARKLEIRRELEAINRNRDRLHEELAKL

Experiments:
[1] = biological target: ATP-dependent 6-phosphofructokinase (Trypanosoma brucei brucei) (UniProt O15648); assay: qHTS Assay to Find Inhibitors of T. brucei phosphofructokinase: hit validation (AID 492961); note: % is set by controls: 0 for no effect and ±100 for the full control effect; details: T. brucei PFK, ADP-Glo luminescence; at 51.4 µM (top of the series)
Method in brief: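 Luminescence from ADP-Glo reports ADP generated as T. brucei PFK (1.25 nM) phosphorylates 0.5 mM fructose-6-phosphate using 0.1 mM ATP. Reactions ran 45 min at room temperature, pH 8.0.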

3D7 = assay: qHTS profiling for inhibitors of Plasmodium falciparum proliferation (AID 504749); note: nearly all actives have a fitted effect of over 60% in size; note: potency is the fitted concentration of half-maximal effect;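 for activity, negative = inhibition: 0% = DMSO vehicle and full inhibition = artemisinin control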; details: P. falciparum in erythrocytes, SYBR Green DNA, 72 h; at 28.7 µM (top of the series)
Method in brief: (§1)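 P. falciparum-infected erythrocytes (0.3% parasitemia, 2.5% hematocrit) incubated with compound 72 h at 37 C, 5% CO2. Parasite DNA detected by SYBR Green after lysis, overnight at room temperature; normalised to 0.29 uM artemisinin and DMSO.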

7G8 = assay: as above; details: P. falciparum in erythrocytes, SYBR Green DNA, 72 h
Method in brief: as §1

AA1029 = assay: as above; details: P. falciparum in erythrocytes, SYBR Green DNA, 72 h
Method in brief: as §1

CP237 = assay: as above; details: P. falciparum in erythrocytes, SYBR Green DNA, 72 h
Method in brief: as §1

CP256 = assay: as above; details: P. falciparum in erythrocytes, SYBR Green DNA, 72 h
Method in brief: as §1

CP260 = assay: as above; details: P. falciparum in erythrocytes, SYBR Green DNA, 72 h
Method in brief: as §1

CP262 = assay: as above; details: P. falciparum in erythrocytes, SYBR Green DNA, 72 h; at 28.7 µM (top of the series)
Method in brief: as §1

DIV14 = assay: as above; details: P. falciparum in erythrocytes, SYBR Green DNA, 72 h
Method in brief: as §1

ECU = assay: as above; details: P. falciparum in erythrocytes, SYBR Green DNA, 72 h; at 28.7 µM (top of the series)
Method in brief: as §1

FAB9 = assay: as above; details: P. falciparum in erythrocytes, SYBR Green DNA, 72 h; at 28.7 µM (top of the series)
Method in brief: as §1

JCK = assay: as above; details: P. falciparum in erythrocytes, SYBR Green DNA, 72 h; at 28.7 µM (top of the series)
Method in brief: as §1

P93_24 = assay: as above; details: P. falciparum in erythrocytes, SYBR Green DNA, 72 h
Method in brief: as §1

P94_40 = assay: as above; details: P. falciparum in erythrocytes, SYBR Green DNA, 72 h
Method in brief: as §1

PC15 = assay: as above; details: P. falciparum in erythrocytes, SYBR Green DNA, 72 h; at 28.7 µM (top of the series)
Method in brief: as §1

PC49 = assay: as above; details: P. falciparum in erythrocytes, SYBR Green DNA, 72 h; at 28.7 µM (top of the series)
Method in brief: as §1

TAB109 = assay: as above; details: P. falciparum in erythrocytes, SYBR Green DNA, 72 h
Method in brief: as §1

W2 = assay: as above; details: P. falciparum in erythrocytes, SYBR Green DNA, 72 h
Method in brief: as §1

CN1CCCC(OC(=O)C(O)(c2ccccc2)c2ccccc2)C1 (stereo not drawn) was tested, and the activity change, negative = inhibition [1] was inactive: 0%, the activity, negative = inhibition (3D7) was inactive: -29.5% and the Potency (7G8) was active: 4.47 µM. The Potency (AA1029) was active: 3.55 µM, the Potency (CP237) was active: 8.91 µM and the Potency (CP256) was active: 5.62 µM. For the same compound, the Potency (CP260) was active: 10 µM, the activity, negative = inhibition (CP262) was inactive: 0% and the Potency (DIV14) was active: 7.57 µM. The activity, negative = inhibition (ECU) was inactive: -27.7%, the activity, negative = inhibition (FAB9) was inactive: -18.5% and the activity, negative = inhibition (JCK) was inactive: -17.4%. For the same compound, the Potency (P93_24) was active: 3.98 µM, the Potency (P94_40) was active: 12.6 µM and the activity, negative = inhibition (PC15) was inactive: -16.6%. For the same compound, the activity, negative = inhibition (PC49) was inactive: -24.7%, the Potency (TAB109) was active: 2.51 µM and the Potency (W2) was active: 3.79 µM.
